## Antibody variant affinities, Ab-14 heavy chain, assay 1

Reference: Engelhart et al. 2022, doi:10.1038/s41597-022-01779-4. File: FLAb, binding data.

The target is the same throughout: PDVDLGDISGINAS, from the HR2 region of SARS-CoV-2 spike.

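The library (AAYL49) carries one to three amino acid substitutions per variant, with no insertions or deletions. In AlphaSeq, yeast of one mating type display the scFv and yeast of the other type display the target. The frequency of each diploid, read from paired DNA barcodes, reflects how well the two displayed proteins bind. Scores were corrected for input abundance and mapped to Kd with protein pairs of known affinity run in the same pool. The assay was run in three technical replicates.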

Ab-14 is the parent antibody, in scFv form: VH, then three GGGGS repeats, then VL. The light chain is unchanged in all variants.
VH: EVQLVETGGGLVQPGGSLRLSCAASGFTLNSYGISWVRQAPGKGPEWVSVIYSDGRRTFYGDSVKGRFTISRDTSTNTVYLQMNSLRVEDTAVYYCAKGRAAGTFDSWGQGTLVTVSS
VL: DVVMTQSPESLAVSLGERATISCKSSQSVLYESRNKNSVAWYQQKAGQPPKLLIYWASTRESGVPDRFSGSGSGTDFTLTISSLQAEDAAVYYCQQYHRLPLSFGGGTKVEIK

Positions count from residue 1 of the parent VH; S63F puts F in place of S.
Every variant below is changed at F105 of the VH (sequential numbering).
The Kd shown is the geometric mean over detected replicates; a lower Kd is a better binder.
"no signal" marks a missing value. The strain was present, yet no cells mated with the target were sequenced in any replicate, which points to weak or no binding.

* S63F/R100M/F105L = no signal (0 of 3 replicates)
* S35W/T104V/F105L = 3.0 µM (1 of 3 replicates)
* G33R/G99Q/F105Y = 610 nM (1 of 3 replicates)
* D54Q/F105K/S107N = 110 µM (1 of 3 replicates)
* K65C/F105W/D106Q = no signal (0 of 3 replicates)
* R56P/T58E/F105I = no signal (0 of 3 replicates)
* T28F/I34R/F105C = 3.5 µM (1 of 3 replicates)
* R57G/Y60S/F105L = no signal (0 of 3 replicates)
* Y52H/R57V/F105N = no signal (0 of 3 replicates)
* D54M/A102Q/F105G = 9.5 µM (1 of 3 replicates)
* F27G/S31P/F105P = 37 µM (3 of 3 replicates)
* N30Y/F105M = no signal (0 of 3 replicates)
* T28K/F105W/S107E = 1.4 µM (1 of 3 replicates)
* V50E/F105K/S107Y = 2.0 µM (1 of 3 replicates)
* N30D/S53E/F105P = no signal (0 of 3 replicates)
* S31L/D62N/F105D = no signal (0 of 3 replicates)
* S31M/D54I/F105T = 12 µM (1 of 3 replicates)
* I34A/D54I/F105R = 1.3 µM (1 of 3 replicates)
* K65G/F105E = 740 nM (3 of 3 replicates)
* G55K/F105K = no signal (0 of 3 replicates)
* I34H/V64P/F105S = 46 µM (2 of 3 replicates)
* D62T/F105Y = no signal (0 of 3 replicates)
* S53D/V64A/F105I = 42 µM (2 of 3 replicates)
* G103C/F105K = 38 µM (1 of 3 replicates)
* Y32M/D62Q/F105T = 5.4 µM (1 of 3 replicates)
* F27M/V64L/F105Q = 48 µM (2 of 3 replicates)
* G26R/N30E/F105D = 3.9 nM (3 of 3 replicates)
* N30H/G61K/F105W = no signal (0 of 3 replicates)
* S31Y/S53N/F105V = no signal (0 of 3 replicates)
* T28P/N30C/F105Q = no signal (0 of 3 replicates)
* T28A/R56W/F105T = no signal (0 of 3 replicates)
* S53N/R57V/F105E = 42 µM (1 of 3 replicates)
* G55V/R57Q/F105A = no signal (0 of 3 replicates)
* R100K/T104D/F105I = no signal (0 of 3 replicates)
* G26D/R57L/F105K = no signal (0 of 3 replicates)
* V50C/G61V/F105L = 57 µM (2 of 3 replicates)
* S31R/G99E/F105M = 55 µM (1 of 3 replicates)
* T28C/S53E/F105Y = 2.4 µM (1 of 3 replicates)
* L29R/S53P/F105K = no signal (0 of 3 replicates)
* R56Y/A101C/F105Q = 11 µM (1 of 3 replicates)
* V50T/F59P/F105K = no signal (0 of 3 replicates)
* R100M/A102L/F105D = no signal (0 of 3 replicates)
* F105R = 110 nM (3 of 3 replicates)
* Y32S/G33I/F105L = 6.5 µM (1 of 3 replicates)
* G33P/S53D/F105N = 560 nM (1 of 3 replicates)
* F105S = 210 µM (1 of 3 replicates)
* T28I/F105P = 13 µM (1 of 3 replicates)
* A102P/F105T/S107V = 4.3 nM (3 of 3 replicates)
* R56H/S63M/F105T = 30 µM (1 of 3 replicates)
* V50R/G99S/F105R = no signal (0 of 3 replicates)
* D54T/S63P/F105R = 1.9 µM (2 of 3 replicates)
* N30L/I34N/F105L = 45 µM (2 of 3 replicates)

Top 5 of the variants detected in all replicates, tightest first:

* G26R/N30E/F105D = 3.9 nM (3 of 3 replicates)
* A102P/F105T/S107V = 4.3 nM (3 of 3 replicates)
* F105R = 110 nM (3 of 3 replicates)
* K65G/F105E = 740 nM (3 of 3 replicates)
* F27G/S31P/F105P = 37 µM (3 of 3 replicates)

In this assay the parent's reference entry averaged 4.4 nM; its copy inside this library read 13 µM (one replicate of three).
Empty control strains, which show no peptide, gave a signal in 15% of pairings with library AAYL49; the median was 11 µM and 95% of these signals were weaker than 680 nM. No background was subtracted.